Reference: patent publication US20110053925A1, “Hydroxamate-Based Inhibitors of Deacetylases” (Novartis AG, priority 2009, published 2011)

Sequences of proteins named here, by UniProt entry; tags and fusion partners are left off.
UniProt Q13547, whole entry: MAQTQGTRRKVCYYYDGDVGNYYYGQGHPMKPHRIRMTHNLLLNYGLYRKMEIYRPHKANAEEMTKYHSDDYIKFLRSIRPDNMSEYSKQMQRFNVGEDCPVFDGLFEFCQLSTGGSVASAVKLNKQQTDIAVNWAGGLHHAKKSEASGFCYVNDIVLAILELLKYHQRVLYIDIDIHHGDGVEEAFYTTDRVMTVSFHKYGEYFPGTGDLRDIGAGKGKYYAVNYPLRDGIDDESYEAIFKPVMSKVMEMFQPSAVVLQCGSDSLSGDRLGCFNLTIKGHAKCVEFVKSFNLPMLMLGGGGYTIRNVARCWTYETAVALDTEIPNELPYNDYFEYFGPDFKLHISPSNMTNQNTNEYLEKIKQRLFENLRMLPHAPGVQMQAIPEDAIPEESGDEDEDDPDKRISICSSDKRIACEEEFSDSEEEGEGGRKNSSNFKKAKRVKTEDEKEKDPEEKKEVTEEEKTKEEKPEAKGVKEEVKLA

Tests used:
[1] = target: HDAC-1 (Homo sapiens, UniProt Q13547); test: HDAC Inhibition Assay (purified GST-HDAC protein); assay type: biochemical; settings: read-out: HDAC-1 IC50
[2] = test system: HCT116; test: HCT116 IC50; assay type: cell-based; settings: read-out: HCT116 IC50

SMILES: O=C(/C=C/c1ccc(CN2CCCC(c3c[nH]c4ccccc34)C2)c(F)c1)NO (centres unmarked)
- IC50 [1]: 140 nM
- IC50 [2]: 330 nM
